What was measured:
PI3K gamma [1] = biological target: T1, PI3K gamma (Homo sapiens, UniProt P48736); experiment: Competitive binding assay in MOLT-4 cell lysate with the phenylthiazole ligand 1 affinity matrix
PI3K gamma [2] = biological target: T1, PI3K gamma; experiment: Elution assay: PI3K gamma eluted from immobilized phenylthiazole ligand 1 (MOLT-4 lysate, dot blot)

Amino acid sequences for entries named in this document (tags omitted). A change or cut given only in a name is not applied to a line headed by its entry.
UniProt P48736: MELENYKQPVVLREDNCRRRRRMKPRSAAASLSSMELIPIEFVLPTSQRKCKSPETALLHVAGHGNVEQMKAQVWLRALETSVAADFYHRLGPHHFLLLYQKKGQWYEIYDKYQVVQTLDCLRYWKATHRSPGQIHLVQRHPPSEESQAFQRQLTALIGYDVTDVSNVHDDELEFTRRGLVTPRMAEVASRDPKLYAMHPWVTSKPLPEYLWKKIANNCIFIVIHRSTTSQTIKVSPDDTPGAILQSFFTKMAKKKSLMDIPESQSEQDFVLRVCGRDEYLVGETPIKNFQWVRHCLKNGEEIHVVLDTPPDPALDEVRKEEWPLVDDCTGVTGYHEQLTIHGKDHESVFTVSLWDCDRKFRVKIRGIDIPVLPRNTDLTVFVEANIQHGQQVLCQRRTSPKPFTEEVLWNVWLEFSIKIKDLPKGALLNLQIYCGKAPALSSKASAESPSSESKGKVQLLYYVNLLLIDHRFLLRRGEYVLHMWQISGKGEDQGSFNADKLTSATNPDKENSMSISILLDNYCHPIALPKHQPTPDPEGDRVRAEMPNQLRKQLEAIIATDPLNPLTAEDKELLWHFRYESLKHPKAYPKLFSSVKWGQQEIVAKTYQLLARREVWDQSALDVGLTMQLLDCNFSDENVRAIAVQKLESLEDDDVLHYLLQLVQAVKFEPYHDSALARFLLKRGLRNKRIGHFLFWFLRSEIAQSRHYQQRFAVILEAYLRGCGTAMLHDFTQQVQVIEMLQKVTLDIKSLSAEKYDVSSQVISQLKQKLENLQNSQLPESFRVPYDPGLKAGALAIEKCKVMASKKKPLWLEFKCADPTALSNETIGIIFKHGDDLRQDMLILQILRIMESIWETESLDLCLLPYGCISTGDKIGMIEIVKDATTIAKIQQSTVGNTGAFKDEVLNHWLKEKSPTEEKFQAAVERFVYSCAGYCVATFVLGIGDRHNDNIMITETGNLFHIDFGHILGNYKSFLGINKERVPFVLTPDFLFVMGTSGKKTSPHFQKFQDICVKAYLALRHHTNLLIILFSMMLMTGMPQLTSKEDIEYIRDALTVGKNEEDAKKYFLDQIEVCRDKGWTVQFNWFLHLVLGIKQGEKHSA

IC50 (PI3K gamma [1]): > 30 µM
IC50 (PI3K gamma [2]): > 100 µM
SMILES: O=c1cc(N2CCOCC2)oc2c(-c3ccccc3)cccc12 [Compound 1]

— patent US8153389B2, “Methods for the identification of PI3K interacting molecules and for the purification of PI3K” (CellZone AG, priority 2006, dated 2012)
